Reference: US20220401383A1 (SHINKEI THERAPEUTICS, INC., priority 2019, published 2022)

Tested on: CBD metabolism in human liver microsomes
Assay: Example 1: inhibition of CBD metabolism in pooled human liver microsomes

CC(=O)N1CCN(c2ccc(OCC3COC(Cn4ccnc4)(c4ccc(Cl)cc4Cl)O3)cc2)CC1 (stereo not shown) [Ketoconazole]
Inhibition of CBD metabolism (in words): inhibits CBD metabolism but is less potent than cobicistat, 6,7-dihydroxybergamottin and lansoprazole
